Measurements taken from ChEMBL document CHEMBL5131434, “Design and synthesis of novel orexin 2 receptor agonists based on naphthalene skeleton” (Bioorg Med Chem Lett, 2022).

Species: Homo sapiens
Test: Selectivity ratio of Ki for antagonist activity at human OX1R expressed in CHO-K1 cells to Ki for antagonist activity at human OX2R expressed in CHO-K1 cells
Format: cell-based

`COc1ccc(C(=O)Nc2cccc([C@]3(C)O[C@@H]4CO[C@H]5N4[C@@H]3O[C@@]5(C)c3cccc(NC(=O)c4ccc(OC)cc4)c3)c2)cc1` gave a Ratio Ki of 6.6.
